Experiments:
OPCs = experiment: GC/MS-based sterol profiling in OPCs; type: cell-based, mouse; details: 24 h treatment (siRNA 96 h)
EpiSC-derived OPCs = experiment: In vitro phenotypic screening of OPCs (MBP+ oligodendrocytes at 72 h); type: cell-based, mouse; details: ketoconazole 2.5 μM (maximally effective dose)
EBP = EBP (Mus musculus, UniProt P70245); experiment: EBP enzymatic assay (GC/MS); type: biochemical; details: 10 μM, zymostenol 25 μM

Protein sequences, listed by entry. Tags and fused reporters are not part of them. Lines headed by an entry give the natural chain unless they say otherwise; changes in a name come on top.
UniProt P70245: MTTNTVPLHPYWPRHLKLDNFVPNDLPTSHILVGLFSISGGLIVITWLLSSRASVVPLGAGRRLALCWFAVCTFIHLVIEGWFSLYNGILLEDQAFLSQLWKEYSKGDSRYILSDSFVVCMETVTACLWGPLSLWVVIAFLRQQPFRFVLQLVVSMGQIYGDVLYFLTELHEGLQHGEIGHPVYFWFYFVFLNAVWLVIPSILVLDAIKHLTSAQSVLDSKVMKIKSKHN

## Trans-U50488
OPCs
  sterol levels / sterol intermediate accumulation in OPCs: induced accumulation of zymostenol and zymosterol and decreased basal sterol levels
EpiSC-derived OPCs
  oligodendrocyte formation in combination with ketoconazole: did not enhance differentiation above levels seen for ketoconazole alone
EBP
  inhibition of EBP enzymatic activity: clear inhibition

Source: US20180228743A1, “COMPOUNDS AND METHODS OF PROMOTING MYELINATION” (Case Western Reserve University, priority 2016, published 2018)
